Broadly, the IC50 is the concentration that inhibits the measured activity by half. High values mean a need for much substance, low ones inhibition by little substance. As usually defined, the Ki is the dissociation constant of the complex between target and ligand, obtained from inhibition or displacement.

Chains of the proteins cited; added tags and fusions are not shown. Lines headed by an entry give the natural chain unless they say otherwise; changes in a name come on top. Residues count along the entry.
UniProt A0A286XTF2, 1-366: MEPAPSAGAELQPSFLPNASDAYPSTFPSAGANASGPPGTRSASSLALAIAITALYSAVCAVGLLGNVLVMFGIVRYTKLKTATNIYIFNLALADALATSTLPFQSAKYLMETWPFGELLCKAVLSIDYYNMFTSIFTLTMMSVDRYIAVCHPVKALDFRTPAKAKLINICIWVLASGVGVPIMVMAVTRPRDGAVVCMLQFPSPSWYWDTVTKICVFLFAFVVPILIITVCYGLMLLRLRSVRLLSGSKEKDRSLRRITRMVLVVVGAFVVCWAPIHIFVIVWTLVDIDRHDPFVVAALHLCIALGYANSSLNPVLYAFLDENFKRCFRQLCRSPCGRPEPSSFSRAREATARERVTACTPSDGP
UniProt A0ACM8Q262, 1-400: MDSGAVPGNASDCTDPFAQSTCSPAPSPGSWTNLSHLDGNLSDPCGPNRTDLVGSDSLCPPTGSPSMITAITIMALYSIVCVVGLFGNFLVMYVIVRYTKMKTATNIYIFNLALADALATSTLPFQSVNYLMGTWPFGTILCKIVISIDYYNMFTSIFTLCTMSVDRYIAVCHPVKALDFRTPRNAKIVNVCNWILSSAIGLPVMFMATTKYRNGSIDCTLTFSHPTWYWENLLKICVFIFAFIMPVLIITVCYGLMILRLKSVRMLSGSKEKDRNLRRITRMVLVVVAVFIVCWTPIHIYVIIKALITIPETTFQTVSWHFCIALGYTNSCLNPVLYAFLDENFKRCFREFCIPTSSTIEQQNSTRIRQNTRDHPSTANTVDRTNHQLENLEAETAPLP

Experimental findings from patent US7598253B2, “Reverse-turn mimetics and methods relating thereto” (Myriad Genetics, Inc., priority 1995, dated 2009) are described below.

For one experiment, the target named is δ opiate receptor (Cavia porcellus, UniProt A0A286XTF2). In words: Opiate (δ) binding, [3H]DPDPE competitive radioligand binding. Also noted: species or system guinea pig.
The target of another experiment is μ opiate receptor (Cavia porcellus, UniProt A0ACM8Q262). In kind it is binding, guinea pig.

(D-pen^3, D-pen^5) enkephalin [DPDPE]: the 50% inhibitory concentration (IC50) worked out at 5.5 nM at δ opiate receptor and 4 nM at μ opiate receptor. Further, the inhibitory constant (Ki) on δ opiate receptor was 1.3 nM; on μ opiate receptor it was 0.37 nM.
